Literature values in patent US12637662B2, “Cells, islets, and organoids that evade immune detection and autoimmunity, methods of production and use thereof” (SALK INSTITUTE FOR BIOLOGICAL STUDIES, priority 2018, dated 2026).

What was measured:
CD80 (B7-1) = target: T1, CD80 (B7-1) (Homo sapiens, UniProt P33681); settings: read-out: affinity for CD80; cited from earlier work
T1 sequence (P33681 35-288): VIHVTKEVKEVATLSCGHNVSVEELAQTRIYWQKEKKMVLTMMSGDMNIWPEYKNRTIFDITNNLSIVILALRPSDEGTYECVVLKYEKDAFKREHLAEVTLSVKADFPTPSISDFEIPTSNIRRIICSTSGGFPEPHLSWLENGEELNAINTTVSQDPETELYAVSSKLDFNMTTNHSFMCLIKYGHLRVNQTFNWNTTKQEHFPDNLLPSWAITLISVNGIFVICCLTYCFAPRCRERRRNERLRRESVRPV

CD28 = CD28 (Homo sapiens, UniProt P10747); settings: read-out: affinity for CD28; cited from earlier work
CD86 (B7-2) = target: T2, CD86 (B7-2) (Homo sapiens, UniProt P42081); settings: cited from earlier work
T2 sequence (P42081 24-329): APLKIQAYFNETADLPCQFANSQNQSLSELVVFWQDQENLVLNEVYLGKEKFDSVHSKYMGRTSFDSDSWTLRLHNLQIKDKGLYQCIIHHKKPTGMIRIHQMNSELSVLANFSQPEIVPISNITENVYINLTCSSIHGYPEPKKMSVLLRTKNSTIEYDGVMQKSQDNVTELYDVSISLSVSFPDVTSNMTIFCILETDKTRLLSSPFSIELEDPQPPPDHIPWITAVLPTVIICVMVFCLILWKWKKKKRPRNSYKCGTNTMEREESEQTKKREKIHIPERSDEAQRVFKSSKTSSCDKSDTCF

CTLA-4 = CTLA-4 (Homo sapiens, UniProt P16410); settings: read-out: affinity for CTLA-4; cited from earlier work

## PD-L1: immune checkpoint protein, cognate ligand that binds to PD-1
CD80 (B7-1)
  Kd: 1.4 µM
CD28
  Kd: 4 µM
CD86 (B7-2)
  affinity for CD86 (in words): not for CD86
CTLA-4
  Kd: 0.4 µM
